Results reported in ChEMBL document CHEMBL1133481, “Resistance-modifying agents. 8. Inhibition of O(6)-alkylguanine-DNA alkyltransferase by O(6)-alkenyl-, O(6)-cycloalkenyl-, and O(6)-(2-oxoalkyl)guanines and potentiation of temozolomide cytotoxicity in vitro by O(6)-(1-cyclopentenylmethyl)guanine” (J Med Chem, 2000).

How the values were obtained:
[1] = biological target: T1, Methylated-DNA--protein-cysteine methyltransferase (Homo sapiens, UniProt P16455); experiment: concentration required to reduce AGT activity to 50% of control rate in intact HT-29 human colorectal carcinoma cells; assay type: cell-based
T1 sequence (P16455 whole entry): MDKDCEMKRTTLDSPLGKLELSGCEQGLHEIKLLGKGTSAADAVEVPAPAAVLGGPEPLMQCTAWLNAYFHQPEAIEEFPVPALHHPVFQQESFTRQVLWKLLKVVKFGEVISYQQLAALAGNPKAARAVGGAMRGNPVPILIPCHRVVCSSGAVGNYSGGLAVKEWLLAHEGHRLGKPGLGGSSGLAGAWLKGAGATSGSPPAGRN
Summary of the method: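 HT29 cells were grown 3 days in EMEM with 10% FCS, then exposed for 4 h to inactivator in serum-free EMEM (DMSO final 1% or 0.1%). Cells were trypsinized, washed and counted by trypan blue; pellets of 10⁷ cells were homogenized in Tris-HCl pH 8.3 buffer with EDTA, DTT and 200 mM NaCl. AGT activity was assayed in the extracts, and the concentration depleting whole-cell AGT activity by 50% was calculated.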

[2] = biological target: T1, Methylated-DNA--protein-cysteine methyltransferase; experiment: Inhibition of AGT activity to 50% of control rate in HT-29 cell extract; assay type: cell-free
Summary of the method: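 HT29 cell extract AGT assay; IC50 is the inhibitor concentration reducing AGT activity to 50% of the control rate.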

## Nc1nc(OCc2ccccc2)c2[nH]cnc2n1 [6-O-BENZYLGUANINE]
[1]
  IC50: 58 nM
[2]
  IC50: 180 nM
